Assay results as given in patent US5300498A, “6-piperazinyl-1H-pyrazolo[3,4-b]pyridine-3-carboxylic acids, esters, amides and related compounds” (Hoechst-Roussel Pharmaceuticals Incorporated, priority 1993, dated 1994).

Tested on: serotonin (5HT) uptake
Experiment: [^3 H]-Serotonin Uptake in Rat Whole Brain and Hypothalamic Synaptosomes
Assay type: biochemical, rat (male CR Wistar)
Conditions: 50 nM [^3 H]-5HT, 37° C., 5 minutes, read-out: Inhibition of Serotonin Uptake, IC50
Experimental: [^3 H]-Serotonin Uptake in Rat Whole Brain and Hypothalamic Synaptosomes
A. Animals: Male CR Wistar rats (100-125 g).
1. Krebs-Henseleit Bicarbonate Buffer, pH 7.4 (KHBB):
Prior to use add to 200 ml, per assay:
Make a 4 liter batch, containing the following salts:
3. Sucrose solution: 0.32M sucrose containing 5 mM HEPES and 0.1 mM EDTA; pH to 7.3 using Tris base.
4. A 0.1 mM stock solution of serotonin creatinine SO4 is made up in 0.01N HCl. This is used to dilute the specific activity of the radiolabeled 5HT.
The final desired concentration of [^3 H]-5HT in the assay is 50 nM. The dilution factor is 0.8.
6. For most assays, a 0.5 mM stock solution of the test compound is made up initially in either 10 μl of glacial acetic acid, 100 μl DMSO or 10 μl of the recrystallization solvent, to which is added approximately 10 ml of distilled water. Compounds are initially screened in duplicate at 3 concentrations (10^-8, 10^-7 and 10^-6 M) made up in water.
43, 1114 (1984) and Dunkley, P. R., Jarvie, R. E., Heath, J. W., Kidd, G. J., Rostas, J. A. P. Brain Research 372, 115 (1986). Male Wistar rats are decapitated and the brain rapidly removed. […] The following procedures are performed on ice. Homogenization should be done with 4-5 up and down strokes at medium speeds (setting 4.5 to 5) to minimize synaptosome lysis. […]

CN(C)CCC=C1c2ccccc2CCc2ccccc21 [Amitriptyline, reference compound]
IC50: 91 nM
